Results reported in patent publication US9745288B2, “Compounds and methods for treating cancer by inhibiting the urokinase receptor” (Indiana University Research and Technology Corporation, priority 2011, dated 2017).

The chains behind the UniProt entries cited, without tags or fusion partners. Residues count along the entry.
UniProt Q03405, 23-305 limits assumed: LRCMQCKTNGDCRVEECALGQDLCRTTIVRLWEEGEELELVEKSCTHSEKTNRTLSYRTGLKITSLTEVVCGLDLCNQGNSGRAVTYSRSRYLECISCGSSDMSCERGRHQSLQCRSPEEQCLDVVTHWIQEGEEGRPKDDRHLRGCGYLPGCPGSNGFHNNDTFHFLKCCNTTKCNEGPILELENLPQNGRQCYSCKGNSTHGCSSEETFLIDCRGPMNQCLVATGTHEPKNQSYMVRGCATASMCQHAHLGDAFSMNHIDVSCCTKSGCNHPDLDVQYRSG

Experiments:
uPAR = uPAR (Homo sapiens, UniProt Q03405); assay: Fluorescence polarization assay, displacement of AE147-FAM peptide from uPAR; settings: Table 1; assay not stated
MDA-MB-231 cells [1] = assay: Adhesion assay on fibronectin-coated wells; format: cell-based, human
MDA-MB-231 cells [2] = assay: Migration assay (Boyden chamber without Matrigel); format: cell-based, human; settings: compared to the control
PANC-1 cells = assay: MTT assay
[3] = system: AsPC-1 (human pancreas adenocarcinoma cell line); assay: MTT assay
[4] = system: different signaling molecules; assay: Western blot analysis of signaling; settings: n=1
MDA-MB-231 cells [5] = assay: MTT proliferation assay

IC50 (uPAR): 30 µM
Ki (uPAR): 9.12 µM
SMILES: Cc1ccc(-n2ncc(C(=O)Nc3ccccc3OCc3ccccc3)c2C2CCNCC2)cc1C
cell adhesion, comparison of compounds (MDA-MB-231 cells [1]; 50 μM): significantly more active in this assay than the IPR-81 and IPR-69 compounds
cell adhesion (MDA-MB-231 cells [1]; MDA-MB-231): capable of inhibiting breast cancer cells
cell migration (MDA-MB-231 cells [2]): capable of inhibiting cell migration
cell proliferation / viability (MTT, words) (PANC-1 cells): inhibited cell proliferation
cell proliferation (MTT, words) [3]: inhibited cell proliferation
effect on signaling molecules [4]: did not seem to be much of an effect
cell proliferation / viability (MTT, words) (MDA-MB-231 cells [5]): inhibited cell proliferation
